Our source for the IC50 values is publication PMC9930781, “Design, synthesis, docking, and anticancer evaluations of new thiazolo[3,2-a] pyrimidines as topoisomerase II inhibitors” (Journal of Enzyme Inhibition and Medicinal Chemistry, 2023).

Sequences of proteins named here, by UniProt entry; tags and fusion partners are left off. A change or cut given only in a name is not applied to a line headed by its entry.
UniProt P11388: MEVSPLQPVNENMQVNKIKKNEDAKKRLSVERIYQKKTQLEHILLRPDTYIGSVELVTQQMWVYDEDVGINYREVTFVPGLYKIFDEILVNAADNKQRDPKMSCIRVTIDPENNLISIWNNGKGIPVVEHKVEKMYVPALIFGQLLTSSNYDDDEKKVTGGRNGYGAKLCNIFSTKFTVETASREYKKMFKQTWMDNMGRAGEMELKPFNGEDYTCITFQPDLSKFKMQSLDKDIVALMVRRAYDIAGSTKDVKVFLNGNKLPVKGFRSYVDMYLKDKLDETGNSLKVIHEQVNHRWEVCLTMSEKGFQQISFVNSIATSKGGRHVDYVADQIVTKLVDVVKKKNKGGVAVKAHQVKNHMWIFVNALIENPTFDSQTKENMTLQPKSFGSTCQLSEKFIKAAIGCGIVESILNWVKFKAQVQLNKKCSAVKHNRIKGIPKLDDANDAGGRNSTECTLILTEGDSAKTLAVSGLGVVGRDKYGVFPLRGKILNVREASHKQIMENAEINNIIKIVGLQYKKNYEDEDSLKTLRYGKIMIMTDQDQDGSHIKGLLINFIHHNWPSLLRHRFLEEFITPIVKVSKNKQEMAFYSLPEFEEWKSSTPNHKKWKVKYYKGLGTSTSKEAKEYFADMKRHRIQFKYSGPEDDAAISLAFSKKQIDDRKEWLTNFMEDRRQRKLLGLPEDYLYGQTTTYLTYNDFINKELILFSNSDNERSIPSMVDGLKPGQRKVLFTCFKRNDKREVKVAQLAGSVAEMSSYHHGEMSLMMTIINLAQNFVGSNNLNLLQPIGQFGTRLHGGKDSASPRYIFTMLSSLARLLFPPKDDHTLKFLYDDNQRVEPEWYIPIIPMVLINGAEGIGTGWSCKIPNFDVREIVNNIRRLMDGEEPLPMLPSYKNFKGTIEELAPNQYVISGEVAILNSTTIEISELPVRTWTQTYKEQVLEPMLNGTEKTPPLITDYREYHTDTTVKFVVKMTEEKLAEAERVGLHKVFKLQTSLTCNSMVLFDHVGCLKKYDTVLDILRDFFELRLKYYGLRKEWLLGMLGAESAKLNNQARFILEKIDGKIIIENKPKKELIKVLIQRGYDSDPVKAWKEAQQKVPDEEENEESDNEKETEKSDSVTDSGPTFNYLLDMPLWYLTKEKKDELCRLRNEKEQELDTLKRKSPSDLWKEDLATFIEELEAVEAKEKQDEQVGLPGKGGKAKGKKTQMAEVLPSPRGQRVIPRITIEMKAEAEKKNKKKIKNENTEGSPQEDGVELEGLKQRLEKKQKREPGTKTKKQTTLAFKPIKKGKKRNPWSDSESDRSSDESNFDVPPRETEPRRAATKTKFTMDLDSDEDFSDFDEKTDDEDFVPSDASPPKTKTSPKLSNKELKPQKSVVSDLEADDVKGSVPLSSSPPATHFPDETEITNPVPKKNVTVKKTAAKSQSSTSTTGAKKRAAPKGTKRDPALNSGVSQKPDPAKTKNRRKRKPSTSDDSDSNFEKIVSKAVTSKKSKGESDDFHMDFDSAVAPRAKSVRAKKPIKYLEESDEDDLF

One may read the IC50 as the point on the concentration scale where inhibition reaches its midpoint. A low value points to inhibition by little substance.

In this assay the target is human topoisomerase II (Homo sapiens, UniProt P11388). The assay can be described thus: DNA Topo II inhibition (kDNA decatenation) assay. The class given is biochemical. The note with it: four concentrations 0.1-100 µM, mean ± SD of two independent assays. The method, then: The ATP-dependent decatenation of kinetoplast DNA (kDNA) obtained from Crithidia fasciculata, which consists of a network of numerous minicircles (2.3 Kb) and some maxicircles, was used to measure topoisomerase II inhibition. Reactions took place in 20 μL and comprised topoisomerase II, 200–300 ng of kDNA, and 120 mM KCl with 50 mM Tris-HCl, pH 8, 10 mM MgCl2, 0.5 mM ATP, and 0.5 mM dithiothreitol. In preliminary tests, the quantity of topoisomerase II (5 units) was changed to decatenate almost 100% of the kDNA under these assay circumstances. […] The products in the reaction mixture were separated by a 1% agarose gel after the reaction was complete and then could be seen after being stained with ethidium bromide (0.2 μg/mL). The gels were run at 100 V for about 40 min and visualised under UV transillumination.
This assay is based on the fact that human Topo II can decatenate interlinked double-stranded DNA molecules.

Molecules are shown by their SMILES.

In turn, `COc1cccc2c1C(=O)c1c(O)c3c(c(O)c1C2=O)C[C@@](O)(C(=O)CO)C[C@@H]3O[C@H]1C[C@H](N)[C@H](O)[C@H](C)O1` [Doxorubicin, reference compound] displayed an IC50 of 830 ± 50 nM.
